The results in this text go back to ChEMBL document CHEMBL1140718, “Fragment-based discovery of mexiletine derivatives as orally bioavailable inhibitors of urokinase-type plasminogen activator” (J Med Chem, 2008).

Each structure is given as a SMILES string.

In the assay the target is Urokinase-type plasminogen activator (Homo sapiens, UniProt P00749).

`CCOc1c(Cl)cc(N2CCCCC2)cc1NC(=O)c1cc(C)c(OCCN)c(C)c1` registered a half-maximal inhibitory concentration (IC50) of 0.072 µM.

As a reminder, the IC50 is the point on the concentration scale where inhibition reaches its midpoint. Higher therefore signals weaker potency in that assay.
